# Source: patent publication US20260216354A1, “ANTI-CMET ANTIBODY, ANTIBODY-DRUG CONJUGATE, AND PREPARATION METHOD THEREFOR AND USE THEREOF” (MEDILINK THERAPEUTICS (SUZHOU) CO., LTD., priority 2022, published 2026)
# B1: 55A10G6-Hz: humanized anti-c-Met antibody, IgG1/Kappa; HC SEQ ID NO: 58, LC SEQ ID NO: 59 (antibody)
# heavy: QIQLVQSGAEVKKPGASVKVSCKASGYTFTDYYLNWVRQAPGQGLEWMGWIFPGSGNTKYSQKFQGRVTLTVDTSASTAYMELSSLRSEDTAVYYCAGGDYGGFTYWGQGTLVTVSSASTKGPSVFPLAPSSKSTSGGTAALGCLVKDYFPEPVTVSWNSGALTSGVHTFPAVLQSSGLYSLSSVVTVPSSSLGTQTYICNVNHKPSNTKVDKKV[human IgG1 Fc omitted here]
# light: DIQMTQSPSSLSASVGDRVTITCGASENIYGALNWYQQKPGKAPKLLIYGATNLAAGVPSRFSGSGSGRDFTLTISSLQPEDFATYYCQNVLSEPLTFGQGTKVEIKRTVAAPSVFIFPPSDEQLKSGTASVVCLLNNFYPREAKVQWKVDNALQSGNSQESVTEQDSKDSTYSLSSTLTLSKADYEKHKVYACEVTHQGLSSPVTKSFNRGEC
# Tests used:
# [1] = test system: cynoMet (cyno.cMet-ECD-His); assay: ELISA affinity of humanized antibodies to cyno Met; assay type: binding; conditions: cyno.cMet-ECD-His captured
# DSF Tm thermal stability = assay type: physicochemical
# h.cMet-ECD-His [2] = molecular target: T1, h.cMet-ECD-His (Homo sapiens, UniProt P08581); assay: ForteBio dynamic affinity to h.cMet-ECD-His; assay type: binding; conditions: ProA sensor
# T1 construct: a human cMet ectodomain recombinant protein (Human HGF R/c-MET Protein, His Tag); purchased Acrobiosystems Co., Ltd. / ACRO Biosystems MET-H5227
# T1 sequence (P08581 25-932 limits assumed): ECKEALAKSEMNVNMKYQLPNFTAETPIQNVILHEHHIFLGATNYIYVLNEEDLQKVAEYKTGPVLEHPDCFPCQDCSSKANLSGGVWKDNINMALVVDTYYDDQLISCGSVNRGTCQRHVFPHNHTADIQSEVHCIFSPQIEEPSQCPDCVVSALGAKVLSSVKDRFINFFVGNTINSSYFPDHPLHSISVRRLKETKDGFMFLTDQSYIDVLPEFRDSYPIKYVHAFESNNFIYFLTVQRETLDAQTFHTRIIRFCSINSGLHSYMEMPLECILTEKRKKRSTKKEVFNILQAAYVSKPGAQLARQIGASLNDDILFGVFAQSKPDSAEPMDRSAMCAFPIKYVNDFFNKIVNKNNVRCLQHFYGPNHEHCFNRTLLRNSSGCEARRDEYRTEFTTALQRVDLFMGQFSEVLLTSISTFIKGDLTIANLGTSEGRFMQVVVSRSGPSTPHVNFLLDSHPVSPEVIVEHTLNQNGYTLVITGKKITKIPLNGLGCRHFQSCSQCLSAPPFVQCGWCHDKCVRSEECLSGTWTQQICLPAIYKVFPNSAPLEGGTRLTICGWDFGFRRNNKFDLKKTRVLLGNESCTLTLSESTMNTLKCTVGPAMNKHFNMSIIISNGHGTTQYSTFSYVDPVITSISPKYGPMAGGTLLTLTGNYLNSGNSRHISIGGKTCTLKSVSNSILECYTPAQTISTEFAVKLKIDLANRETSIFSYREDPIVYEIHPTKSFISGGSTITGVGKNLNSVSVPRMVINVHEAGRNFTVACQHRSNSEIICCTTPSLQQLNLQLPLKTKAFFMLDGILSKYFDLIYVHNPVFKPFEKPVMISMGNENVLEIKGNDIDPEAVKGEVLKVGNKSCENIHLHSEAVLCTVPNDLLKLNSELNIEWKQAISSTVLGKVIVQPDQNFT
# cMet = molecular target: T2, cMet (Homo sapiens, UniProt P08581); assay: cMet protein degradation in MKN-45 cells (Western blot); assay type: cell-based; conditions: 20 μg/ml, 60 hours, MKN-45, vs isotype control IgG1, FIG. 5
# T2 construct: MKN45 cells expressing c-MET antigens; endogenous in cells; host or cells: MKN45
# T2 sequence (P08581 25-1390): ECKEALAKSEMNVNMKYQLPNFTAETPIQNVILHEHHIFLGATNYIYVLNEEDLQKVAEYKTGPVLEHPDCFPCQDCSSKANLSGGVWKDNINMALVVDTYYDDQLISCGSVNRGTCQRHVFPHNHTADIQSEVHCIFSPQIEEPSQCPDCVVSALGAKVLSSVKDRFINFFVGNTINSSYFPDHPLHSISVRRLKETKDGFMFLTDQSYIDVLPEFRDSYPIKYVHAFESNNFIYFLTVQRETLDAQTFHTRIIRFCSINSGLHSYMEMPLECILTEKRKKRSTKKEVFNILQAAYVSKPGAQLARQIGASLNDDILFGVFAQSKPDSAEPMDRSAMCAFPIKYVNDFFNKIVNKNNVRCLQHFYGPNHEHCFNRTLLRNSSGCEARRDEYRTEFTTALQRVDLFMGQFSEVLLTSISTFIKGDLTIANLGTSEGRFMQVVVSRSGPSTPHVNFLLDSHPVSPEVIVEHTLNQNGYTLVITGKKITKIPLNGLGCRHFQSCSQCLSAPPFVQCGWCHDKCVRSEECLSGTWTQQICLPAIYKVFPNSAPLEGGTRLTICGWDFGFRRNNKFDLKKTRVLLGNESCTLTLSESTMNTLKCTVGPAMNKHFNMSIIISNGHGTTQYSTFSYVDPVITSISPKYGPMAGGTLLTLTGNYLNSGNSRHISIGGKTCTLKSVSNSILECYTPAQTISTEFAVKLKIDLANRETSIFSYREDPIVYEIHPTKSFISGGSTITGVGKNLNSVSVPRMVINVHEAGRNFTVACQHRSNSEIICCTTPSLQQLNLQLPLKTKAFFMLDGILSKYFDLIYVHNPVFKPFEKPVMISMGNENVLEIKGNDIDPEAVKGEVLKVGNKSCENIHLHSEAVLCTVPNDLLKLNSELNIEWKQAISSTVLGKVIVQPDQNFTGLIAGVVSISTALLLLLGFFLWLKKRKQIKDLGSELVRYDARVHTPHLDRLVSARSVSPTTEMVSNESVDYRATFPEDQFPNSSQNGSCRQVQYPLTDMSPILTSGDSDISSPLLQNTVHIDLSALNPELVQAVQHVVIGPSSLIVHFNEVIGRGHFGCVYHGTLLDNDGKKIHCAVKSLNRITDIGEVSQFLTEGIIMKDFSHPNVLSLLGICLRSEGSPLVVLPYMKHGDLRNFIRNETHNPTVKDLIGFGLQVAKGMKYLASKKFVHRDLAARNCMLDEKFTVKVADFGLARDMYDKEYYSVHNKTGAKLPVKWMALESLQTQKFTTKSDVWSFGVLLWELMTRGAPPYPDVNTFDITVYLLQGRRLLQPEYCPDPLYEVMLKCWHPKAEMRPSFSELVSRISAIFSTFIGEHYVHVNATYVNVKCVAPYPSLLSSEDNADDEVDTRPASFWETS
# MKN45 cells = assay: Flow affinity of humanized antibodies to MKN45 cells; assay type: binding, human; conditions: flow cytometry
# [3] = test system: HGF-induced ERK phosphorylation; assay: Inhibition of HGF-induced ERK phosphorylation in MDA-MB-468 cells (Western blot); assay type: cell-based, human; conditions: antibody 15 μg/ml, HGF 100 ng/ml, MDA-MB-468, FIG. 4
# h.cMet (cMet-ECD-his) = molecular target: T3, h.cMet (cMet-ECD-his) (Homo sapiens, UniProt P08581); assay: ELISA affinity of humanized antibodies to human cMet; assay type: binding; conditions: cMet-ECD-his coated
# T3 construct: a human cMet ectodomain recombinant protein (Human HGF R/c-MET Protein, His Tag); purchased Acrobiosystems Co., Ltd. / ACRO Biosystems MET-H5227
# T3 sequence (P08581 25-932 limits assumed): T1 sequence (P08581 25-932 limits assumed)
# h.cMet-ECD-His [4] = molecular target: T1, h.cMet-ECD-His; assay: ELISA protein affinity of cMET antibodies before and after conjugating into ADCs; assay type: binding
molecule,measurement,setting,value
B1,cynoMet EC50,[1],6.401 ng/mL
same,Tm (° C.),DSF Tm thermal stability,79.62 °C
same,kdis,h.cMet-ECD-His [2],6.06e-05 s⁻¹
same,cMet degradation,cMet,significantly induce cMet degradation
same,MKN45 EC50,MKN45 cells,49.55 ng/mL
same,Maximum signal value,MKN45 cells; MKN45,78639
same,block of HGF-induced ERK phosphorylation,[3],completely block
same,h.cMet EC50,h.cMet (cMet-ECD-his),4.782 ng/mL
same,EC50,h.cMet-ECD-His [4],6.142 ng/mL
